For eight molecules, Solubility results are on record in patent US11304930B2, “Ammonium salts of 3-(3,5-dibromo-4-hydroxybenzyliden)-5-indo-1,3-dihydroindol-2-one and uses thereof” (Metagone Biotech Inc., priority 2018, dated 2022).

A short description of this data set: Water solubility of GW5074 salts.

The structures appear in SMILES notation.

With `CCNCC.O=C1Nc2ccc(I)cc2C1=Cc1cc(Br)c(O)c(Br)c1` [Diethylamine Salt of GW5075], the Solubility is given as 0.12 mg/100 mL.

Regarding `O=C1Nc2ccc(I)cc2C1=Cc1cc(Br)c([O-])c(Br)c1.[Na+]` [MG-A1, Sodium Salts of GW5074, reference compound], the Solubility is recorded as 0.5 mg/100 mL.

Turning to `O=C1Nc2ccc(I)cc2C1=Cc1cc(Br)c(O)c(Br)c1.OCCN(CCO)CCO` [MG-A3, Triethanolamine Salt of GW5075], the Solubility amounted to 2.36 mg/100 mL.

For the molecule `O=C1Nc2ccc(I)cc2C1=Cc1cc(Br)c(O)c(Br)c1.c1ccc(CNCCNCc2ccccc2)cc1` [N, N′-Dibenzylethylenediamine Salt of GW5075], the Solubility was under 0.02 mg/100 mL.

Take `CNC[C@H](O)[C@@H](O)[C@H](O)[C@H](O)CO.O=C1Nc2ccc(I)cc2C1=Cc1cc(Br)c(O)c(Br)c1` [N-Methylglucamine Salt of GW5075]: the Solubility was 275 mg/100 mL.

As for `C1CNCCN1.O=C1Nc2ccc(I)cc2C1=Cc1cc(Br)c(O)c(Br)c1` [Piperazine Salt of GW5075], the Solubility amounted to 0.74 mg/100 mL.

In the case of `O=C1Nc2ccc(I)cc2C1=Cc1cc(Br)c([O-])c(Br)c1.[K+]` [Potassium Salts of GW5074, reference compound], the Solubility is 0.5 mg/100 mL.

As to `NC(CO)(CO)CO.O=C1Nc2ccc(I)cc2C1=Cc1cc(Br)c(O)c(Br)c1` [Tris(Hydroxymethyl)Aminomethane Salt of GW5075], the Solubility is under 0.02 mg/100 mL.
